Values of other authors in patent US5696093A (CRC for Biopharmaceutical Research Pty Limited, priority 1994, dated 1997).

Chains of the proteins cited; added tags and fusions are not shown.
UniProt P25929, whole entry: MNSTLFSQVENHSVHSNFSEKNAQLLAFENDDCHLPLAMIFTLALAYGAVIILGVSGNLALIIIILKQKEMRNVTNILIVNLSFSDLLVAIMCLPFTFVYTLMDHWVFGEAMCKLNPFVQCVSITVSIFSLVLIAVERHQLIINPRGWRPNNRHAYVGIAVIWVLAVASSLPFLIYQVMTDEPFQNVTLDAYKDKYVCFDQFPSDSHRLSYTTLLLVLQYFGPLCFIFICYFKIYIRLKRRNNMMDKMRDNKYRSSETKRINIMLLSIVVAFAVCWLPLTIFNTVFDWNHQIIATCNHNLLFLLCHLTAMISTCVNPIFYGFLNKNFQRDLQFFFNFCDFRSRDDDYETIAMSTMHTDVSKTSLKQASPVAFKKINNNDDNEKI

Biological target: neuropeptide Y Y1 receptor (Homo sapiens, UniProt P25929)
Design: expressed in transfected cells; host or cells: CHO cells, calcium phosphate transfection, cDNA NEO expression vector (Invitrogen)
Details: Herzog et al, 1992; cited from earlier work

Substance: [Leu^31, Pro^34 ] neuropeptide Y [[Leu^31, Pro^34] NPY]
- increase in cytosolic calcium via cloned Y1 receptor, earlier study: stimulate increases in cytosolic calcium levels
